{"source": "patent US9730984B2", "about": "“Composition for preventing or treating rheumatoid arthritis” (GemVax & KAEL Co., Ltd., priority 2012, dated 2017)", "key": {"[1]": {"test_system": "CIA (collagen induced arthritis) mouse", "assay": "Second experiment: CIA (collagen induced arthritis) animal model, 0.2-5 nM peptide treatment", "format": "in vivo", "description": "(§1) Establishing CIA (Collagen Induced Arthritis) Animal Model\n(§2) In order to find effectiveness of the peptide according to the present invention to rheumatoid arthritis (RA), CIA (collagen induced arthritis) mouse were used to confirmation.\n(§3) Non-patent document disclosed in the present invention describes about CIA animal model in detail. In reference to this, the present embodiment established the CIA animal model as follows.\n(§4) In the first and second experiment mentioned below, lyophilized and formed in powder PEP1 according to the Example 1 was dissolved in 0.9% saline solution and was used. After doing amendment of the purity (purity; 97.3%, content: 85.3%) of PEP1, the solution for injection was made in each concentration with 0.9% saline solution as an additive just before an administration. Every dose was administered by the solution in an amount of 100 μL.\nLike the first experiment, the first inducement was done to 38 mice at day 1 by using 5-week mice, the mice were divided into the group consisting of 32 mice administered by a peptide composition before CIA inducement (8 mice of 0.2 nM, 100 μl (i.e. around 0.04 ng); 8 mice of 1 nM, 100 μl (around 0.2 ng dose); 8 mice of 2 nM, 100 μl (i.e. around 0.4 ng); 8 mice of 5 nM, 100 μl (i.e. around ing)) and the PBS treatment group consisting of 6 mice.\nThe second inducement was done at day 21, and the treatment was done by intradermal injection in each suitable concentration to each group at day 23, 25 and 27 (see FIG. 2).\n(§5) The assessment of rheumatoid arthritis index was done at from the day of second inducement to the day 42 per every two days and the joint and serum was collected after sacrificing all mice at day 42.\n(§6) The rheumatoid arthritis index is distinguished by the point from 0 to 4, and the point given to one mouse could be from 0 to max 16 (see Table 2).\n(§7) For the assessment of rheumatoid arthritis, the index having point 0˜16 per a mouse was measured and the points are shown by the averages thereof."}, "[2]": {"test_system": "CIA (collagen induced arthritis) mouse", "assay": "First experiment: CIA (collagen induced arthritis) animal model, preventive and therapeutic peptide treatment", "format": "in vivo", "conditions": "for rheumatoid arthritis index: FIG. 5, 6", "description": "as §1, §2, §3, §4\nThe first induction was done to 38 mice at day 1 by using 5-weeks male DBA/1J mouse (Orient Bio Inc., Korea), and the mice were divided into the preventive group consisting of 16 mice administered by a peptide composition before CIA inducement (i.e. 8 mice of 1 nM, 100 μl (around 0.2 ng dose) and 8 mice 10 nM, 100 μl (around 2 ng dose)), the therapeutic group consisting of 16 mice administered by a peptide composition after CIA inducement (i.e. 8 mice of 1 nM, 100 μl and 8 mice of 10 nM, 100 μl), and the PBS treatment group consisting of 6 mice.\nTo the preventive group, the treatment was done by intradermal injection in each suitable concentration at day 2, 4, 6, 21, 23, 25, 35, 37 and 39. At day 19, the second inducement was done to 38 mice, and to the therapeutic group the treatment by intradermal injection in each suitable concentration at day 21, 23, 25, 35, 37 and 30 from day 21 (see FIG. 1).\nas §5, §6, §7"}, "HeLa cells": {"test_system": "HeLa cells", "assay": "Toxicity test within HeLa cells (cell viability and toxicity analysis)", "format": "cell-based", "conditions": "general statement; test in HeLa cells with 20 μM (FIG. 10)", "protocol": "HeLa cell line was purchased from ATCC, The HeLa cell line was maintained in MEM supplemented with 10% fetal bovine serum (Invitrogen, USA), Earle's salts, non-essential amino acids, sodium pyruvate, 100 ug/ml penicillin and 100 units/ml streptomycin, and then incubated at 37° C., 5% CO2.\nThe cells were seeded into 96-well plates and added to each well for medium supplemented with 10% fetal bovine serum (Invitrogen, USA), 100 ug/ml penicillin and 100 units/ml streptomycin. The cells were cultured in 37° C., 5% CO2 for 12 h incubator. After incubated, plates washed by PBS, and added MEM (Minimum essential medium) for starvation during 1 h. The 20 μM of PEP 1 with 100 μL of the aqueous solution were added to each well, and then the cells were incubated at 37° C. for 24. After incubated, the cell viability and toxicity were evaluated using an MIT assay."}}, "data": [{"compound": "CC[C@H](C)[C@H](NC(=O)[C@H](Cc1ccccc1)NC(=O)[C@H](CCCNC(=N)N)NC(=O)[C@H](CC(C)C)NC(=O)[C@H](CCCNC(=N)N)NC(=O)[C@H](CO)NC(=O)[C@@H](NC(=O)[C@H](CC(C)C)NC(=O)[C@H](CC(C)C)NC(=O)[C@H](C)NC(=O)[C@@H]1CCCN1C(=O)[C@H](CCCNC(=N)N)NC(=O)[C@H](C)NC(=O)[C@@H](N)CCC(=O)O)[C@@H](C)O)C(=O)N1CCC[C@H]1C(=O)N[C@@H](CCCCN)C(=O)O", "note": "[PEP1]", "values": [{"measurement": "rheumatoid arthritis index, low-concentration treatment", "setting": "[1]; 0.2 nM, 1 nM, FIG. 8 lower graph", "result": "more effectively appearing result of a low-concentration (0.2 nM, 1 nM) peptide treatment"}, {"measurement": "change of weight, low-concentration treatment", "setting": "[1]; 0.2 nM, 1 nM, FIG. 9 lower graph", "result": "more effectively appearing result of a low-concentration (0.2 nM, 1 nM) peptide treatment"}, {"measurement": "survival during the administration", "setting": "[1]; 0.2, 1, 2 or 5 nM, 100 μl, intradermal injection", "result": "all mice were survived"}, {"measurement": "body weight", "setting": "[1]; low-level peptide treatment group vs CIA control group, FIG. 9", "result": "increased body weight was confirmed"}, {"measurement": "rheumatoid arthritis index", "setting": "[1]; peptide treatment group of each concentration (0.2, 1, 2, 5 nM) vs CIA control group, FIG. 8", "result": "appeared to decrease the arthritis index in whole period"}, {"measurement": "histopathological profile (erosion and permeation by edema and inflammation)", "setting": "[2]; 10 nM peptide and 1 nM peptide treated group (Tx) vs CIA control group, FIG. 4", "result": "such damages of the cells were decreased"}, {"measurement": "survival during the administration", "setting": "[2]; first experiment, 1 nM or 10 nM, 100 μl, intradermal injection", "result": "all mice were survived"}, {"measurement": "rheumatoid arthritis index", "setting": "[2]; first experiment, preventive group (pre-1 nM and pre-10 nM)", "result": "effective to decreasing rheumatoid arthritis until day 36 but after then the effectiveness vanished"}, {"measurement": "body weight", "setting": "[2]; first experiment, preventive group and therapeutic group vs CIA control group, FIG. 7", "result": "increased body weights compared to the CIA control group"}, {"measurement": "rheumatoid arthritis index", "setting": "[2]; first experiment, therapeutic group (thera-1 nM and thera-10 nM)", "result": "showed the decreasing arthritis effect in whole period"}, {"measurement": "rheumatoid arthritis index, comparison of concentrations", "setting": "[2]; first experiment, therapeutic group, 10 nM vs 1 nM", "result": "the 10 nM group showed the more effect than the 1 nM group"}, {"measurement": "effectiveness, comparison of concentrations (summary of first and second experiments)", "setting": "[2]; summary of first and second experiments", "result": "the administration of 1 nM peptide was more effective than the 1 nM peptide having lower level"}, {"measurement": "change of the body weight", "setting": "[2]; summary, therapeutic group of the 1 nM peptide treatment vs other groups", "result": "decreased body weight in the therapeutic group of the 1 nM peptide treatment is lower than any other group"}, {"measurement": "inhibition of rheumatoid arthritis, therapeutic group vs preventive group", "setting": "[2]; summary, therapeutic group treated after second inducement", "result": "more effective to inhibit rheumatoid arthritis than the preventive group"}, {"measurement": "toxicity within a cell", "setting": "HeLa cells", "result": "low toxicity within a cell"}]}]}
